# Biological target: T1, soluble adenylyl cyclase chimera IC1 IIC2 -L3 (C1a of type I adenylyl cyclase, residues 271-484, linked to C2a of type II adenylyl cyclase, residues 821-1090) (UniProt P19754+P26769)
# Protein sequences, listed by entry. Tags and fused reporters are not part of them. Lines headed by an entry give the natural chain unless they say otherwise; changes in a name come on top.
# UniProt P26769: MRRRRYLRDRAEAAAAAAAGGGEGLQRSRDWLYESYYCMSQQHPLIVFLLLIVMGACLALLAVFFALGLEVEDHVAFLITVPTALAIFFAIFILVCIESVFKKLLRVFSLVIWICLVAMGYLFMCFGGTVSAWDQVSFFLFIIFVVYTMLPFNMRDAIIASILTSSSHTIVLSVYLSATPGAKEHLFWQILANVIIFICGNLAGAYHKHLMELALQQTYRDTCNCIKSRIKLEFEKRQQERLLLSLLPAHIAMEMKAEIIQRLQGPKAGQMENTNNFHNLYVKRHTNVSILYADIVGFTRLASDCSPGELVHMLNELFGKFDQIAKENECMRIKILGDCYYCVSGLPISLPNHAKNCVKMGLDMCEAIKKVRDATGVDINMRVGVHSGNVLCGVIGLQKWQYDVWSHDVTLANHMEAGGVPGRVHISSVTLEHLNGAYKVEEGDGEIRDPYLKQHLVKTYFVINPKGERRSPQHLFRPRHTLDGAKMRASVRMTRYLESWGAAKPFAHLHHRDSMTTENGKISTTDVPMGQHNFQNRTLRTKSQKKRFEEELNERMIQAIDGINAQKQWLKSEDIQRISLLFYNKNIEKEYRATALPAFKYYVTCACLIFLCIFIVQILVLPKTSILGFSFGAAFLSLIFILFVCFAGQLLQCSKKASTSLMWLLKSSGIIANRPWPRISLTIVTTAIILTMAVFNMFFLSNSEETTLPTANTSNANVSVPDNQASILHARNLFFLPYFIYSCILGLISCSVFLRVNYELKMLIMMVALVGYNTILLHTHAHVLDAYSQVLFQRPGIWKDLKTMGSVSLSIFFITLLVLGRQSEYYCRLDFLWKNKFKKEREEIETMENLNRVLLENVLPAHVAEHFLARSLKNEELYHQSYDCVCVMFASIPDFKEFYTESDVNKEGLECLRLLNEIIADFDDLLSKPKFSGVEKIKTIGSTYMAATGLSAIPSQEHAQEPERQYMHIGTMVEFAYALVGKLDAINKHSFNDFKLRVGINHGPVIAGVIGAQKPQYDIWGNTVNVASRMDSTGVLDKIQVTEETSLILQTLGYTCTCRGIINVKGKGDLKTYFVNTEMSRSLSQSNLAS
# T1 construct: IC1a includes residues 271-484 of type I adenylyl cyclase; IIC2a includes residues 821-1090 of type II adenylyl cyclase; made in house; host or cells: E. coli TP2000 (150,000 g supernatant)
# T1 sequence (P19754+P26769 with tags, fused parts or gaps): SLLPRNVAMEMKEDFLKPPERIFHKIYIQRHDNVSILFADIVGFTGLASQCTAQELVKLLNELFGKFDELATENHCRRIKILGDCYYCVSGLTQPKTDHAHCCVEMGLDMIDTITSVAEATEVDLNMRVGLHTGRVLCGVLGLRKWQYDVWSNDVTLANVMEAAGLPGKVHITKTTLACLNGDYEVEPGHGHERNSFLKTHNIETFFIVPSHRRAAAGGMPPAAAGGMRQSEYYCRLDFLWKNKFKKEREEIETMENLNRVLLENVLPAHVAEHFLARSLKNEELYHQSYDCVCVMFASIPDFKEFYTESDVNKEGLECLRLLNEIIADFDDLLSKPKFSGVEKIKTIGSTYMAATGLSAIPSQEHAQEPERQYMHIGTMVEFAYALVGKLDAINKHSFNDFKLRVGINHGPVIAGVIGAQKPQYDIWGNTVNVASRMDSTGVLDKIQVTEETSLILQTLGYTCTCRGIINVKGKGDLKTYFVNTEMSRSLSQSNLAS
# Assay: Adenylyl cyclase activity of 150,000 g supernatant from E. coli expressing IC1 IIC2 -L3
# Format: biochemical, mammalian
# Settings: forskolin plus GTP-γ-S-Gα
# Description: FIG. 2--Enzyme activity of chimeras.
# Data shown are representative of at least two studies.
# E. coli that contained the desired plasmids were grown in LB plus 50 μM carbenicillin to OD600 =0.3. Isopropyl-β-D-thiogalactopyranoside(100 μM) and chloramphenicol (0.5 μM) were added to induce expression of adenylyl cyclase for 12 hours. Bacteria were then collected by centrifugation at 4° C. and lysed by incubation at 4° C. for 30 min in 20 mM Tris-HCl (pH 8.0), 1 mM EDTA, 2 mM dithiothreitol (DTT) and protease inhibitors with 0.1 mg/ml of lysozyme. The suspension was sonicated briefly (3×20 sec) during incubation. The lysate was centrifuged (4° C.) at 150,000×g for 30 min, and the supernatant was recovered.
# The inventors examined adenylyl cyclase activity in vitro in 150,000 g supernatant fractions from E. coli […] transformed with the various constructs. […] Ca^2+ -calmodulin had no detectable effect on activity, and lysates from cells expressing either IC1 or IIC2 had little adenylyl cyclase activity.
# However, the maximal stimulatory effect of the G protein α subunit exceeded that of forskolin (FIG. 4). […] Synergistic activation of the enzyme was thus not due to alternation of apparent substrate affinity.
smiles,measurement,value
Nc1ncnc2c1ncn2[C@@H]1O[C@H](COP(=O)(O)OP(=O)(O)OP(=O)(O)O)[C@@H](O)[C@H]1O [ATP],"Km for ATP, effect of adding GTP-γ-S-Gα in the presence of forskolin",did not change the Km
